From patent publication US10836792B2, “Retro-inverso peptide inhibitors of cell migration, extracellular matrix and endothelial invasion by tumor cells” (ISTITUTO NAZIONALE TUMORI IRCCS “FONDAZIONE G. PASCALE”, priority 2016, dated 2020) come the findings set out here.

Test [1] deals with T1, FPR1 (Homo sapiens, UniProt P21462).
T1 construct: expressed in transfected cells; host or cells: rat basophilic leukaemia RBL-2H3/ETFR cells
T1 sequence (P21462 1-350): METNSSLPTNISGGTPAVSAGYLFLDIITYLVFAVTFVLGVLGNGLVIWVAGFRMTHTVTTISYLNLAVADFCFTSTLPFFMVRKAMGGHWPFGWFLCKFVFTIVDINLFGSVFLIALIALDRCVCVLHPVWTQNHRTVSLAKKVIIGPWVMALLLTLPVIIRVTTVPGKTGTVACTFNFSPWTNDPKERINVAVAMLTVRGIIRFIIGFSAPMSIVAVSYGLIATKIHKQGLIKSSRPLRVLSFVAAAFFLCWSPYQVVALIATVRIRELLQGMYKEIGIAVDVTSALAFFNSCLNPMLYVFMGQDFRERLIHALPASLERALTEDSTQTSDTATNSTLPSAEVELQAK
Put plainly: Competition with FITC-fMLF binding to RBL-2H3/ETFR cells stably expressing FPR1. The settings on record: 100 nM pre-incubation 60 min at 4° C., then 10 nM FITC-fMLF. The method, then:
(§1) FIG. 3 The retro-inverso peptide RI-3 competes with fMLF for binding to FPR1 (A) and inhibits fMLF-triggered FPR1 internalization (B) in rat basophilic leukaemia RBL-2H3/ETFR cells (Example 3).
(§2) To test whether new generated peptides affect agonist-induced FPR1 activation, rat basophilic leukaemia RBL-2H3/ETFR cells stably expressing FPR1 [24], were pre-incubated with diluents, (None), 100 nM fMLF, or 100 nM RI-3 for 60 min at 4° C. (to avoid FPR1 internalization), and then exposed to 10 nM N-Formyl-Nle-Leu-Phe-Nle-Tyr-Lys-fluorescein (FITC-fMLF) for 60 min at 4° C. Cell-associated fluorescence was measured using a fluorescence plate reader. The results are depicted in FIG. 3. Data, expressed as a percentage of the fluorescence associated to cells exposed to FITC-fMLF alone (None=100%), represent mean±SD from an experiment performed in triplicate. *Statistical significance was calculated against None with p<0.001. […] To evaluate the effect of RI-3 on agonist-dependent FPR1 internalization, binding experiments were performed at 37° C. and cells were visualized using a Zeiss 510 Meta LSM microscope. Original magnifications: 630×. Scale bar: 10 μm. Upon exposure of RBL-2H3/ETFR cells to FITC-fMLF (None), FPR1 appeared mainly internalized as indicated by green fluorescent intra-cytoplasmic spots (arrow) which were prevented by cell pre-incubation with an excess fMLF, as expected. […]

Test [2] addresses T1, FPR1. Kind of test: Agonist-dependent FPR1 internalization in RBL-2H3/ETFR cells (microscopy). The class given is cell-based. The settings on record: binding experiments at 37° C., FITC-fMLF. The protocol:
as §1, §2

In the case of “N-formyl-methionyl-leucyl-phenylalanine peptide [fMLF, reference compound]”, the “inhibition of binding of fluorescent agonist (FITC-fMLF) to RBL-2H3/ETFR cells” value in test [1] is reported as “strongly reduced”. For the same substance, the “agonist-dependent FPR1 internalization” value in test [2] was “prevented”.
